Among the data in BindingDB's records for PubMed 3010074 (Warner-Lambert/Parke-Davis Pharmaceutical Research, 1986) are Ki values, retold here.

Chains of the proteins cited; added tags and fusions are not shown.
UniProt P25099, whole entry: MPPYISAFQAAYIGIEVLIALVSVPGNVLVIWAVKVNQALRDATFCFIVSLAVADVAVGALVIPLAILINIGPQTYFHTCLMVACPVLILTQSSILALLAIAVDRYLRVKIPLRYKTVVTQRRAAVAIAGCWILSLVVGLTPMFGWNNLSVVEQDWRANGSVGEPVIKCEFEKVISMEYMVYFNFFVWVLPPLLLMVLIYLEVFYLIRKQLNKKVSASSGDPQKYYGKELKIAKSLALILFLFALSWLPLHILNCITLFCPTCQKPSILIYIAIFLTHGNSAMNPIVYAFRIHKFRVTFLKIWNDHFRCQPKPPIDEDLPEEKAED

The test has as its target Adenosine receptor A1 (Rattus norvegicus, UniProt P25099).

In general, Ki refers to a dissociation constant, usually derived from enzyme kinetics or from competition with a known ligand. High values mean lower affinity, low ones higher affinity. Compound `OC[C@H]1O[C@@H](n2cnc3c(NCc4ccccc4)ncnc32)[C@H](O)[C@@H]1O` [N6-benzylado] showed a Ki of 120 nM.
